Values of other authors, collected in article PMC3565575 (Bioorganic & medicinal chemistry, 2010).
Where two headings read alike, the source gives them in different places.

Protein sequences, listed by entry. Tags and fused reporters are not part of them.
UniProt Q60492, whole entry: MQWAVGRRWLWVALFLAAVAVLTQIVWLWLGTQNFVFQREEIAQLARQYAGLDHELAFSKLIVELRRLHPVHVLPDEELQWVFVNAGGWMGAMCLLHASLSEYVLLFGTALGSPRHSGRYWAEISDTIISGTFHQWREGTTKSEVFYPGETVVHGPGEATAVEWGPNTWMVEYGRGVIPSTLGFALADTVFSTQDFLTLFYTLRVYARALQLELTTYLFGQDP

Target: sigma-1 receptor (Cavia porcellus, UniProt Q60492)
Details: read-out: Ki, sigma-1 receptor, cited from earlier work

For `CC(Cc1ccc(C(C)(C)C)cc1)CN1C[C@@H](C)O[C@@H](C)C1` (stereo partly drawn) [fenpropimorph], the Ki (guinea pig cerebral sigma-1 receptor) is listed as 0.005 nM, the Ki (guinea pig hepatic sigma-1 receptor) is listed as 0.011 nM and the Ki (yeast-expressed sigma-1 receptor) is listed as 0.08 nM.
